For the assay, the target named is cathepsin B (Homo sapiens, UniProt P07858). Nature of the assay: fluorogenic Z-Phe-Arg-AMC assay. In kind it is biochemical. The conditions noted are these: 40 μM Z-Phe-Arg-AMC, citrate phosphate pH 5.5, 5 mM DTT, 37 °C; covalent, irreversible.

IC50 data for 1 molecule are collected here from paper PMC12568646, “Enzymatic combinatorial synthesis of E-64 and related cysteine protease inhibitors” (Nature Chemical Biology, 2025).

`CCCCCCCNC(=O)[C@@H](NC(=O)[C@H]1O[C@@H]1C(=O)O)C1CCCC1`: the IC50 (in general, the concentration needed to halve the response being measured) worked out at 1.4 nM.
